From PMC6524416, “Nanofibrous Scaffolds Support a 3D in vitro Permeability Model of the Human Intestinal Epithelium” (Frontiers in Pharmacology, 2019)

Legend:
[1] = test system: porcine intestinal segments
[2] = test system: Caco-2 cultures on nanofibrous scaffolds; conditions: Caco-2, pH 7.4
[3] = test system: Caco-2 monolayers on Transwell®

FITC-dextran 4000 [FD4]
Papp (A to B), range over porcine segments [1]: 2.5–4.8 × 10^-6 cm s^-1 | Papp (B to A), range over porcine segments [1]: 1.85–5.00 × 10^-6 cm s^-1 | recovery (range) [1]: 50–70% | Papp (A to B) [2]: 4.51 (±0.67) × 10^-6 cm s^-1 | Papp (B to A) [2]: 0.75 (±0.74) × 10^-6 cm s^-1 | total molecular flux ([3]; Caco-2): less than 0.1% | Papp (A to B) ([3]; Caco-2, pH 7.4): 0.18 (±0.10) × 10^-6 cm s^-1 | Papp (B to A) ([3]; Caco-2, pH 7.4): 0.51 (±0.25) × 10^-6 cm s^-1
